Assay results as given in patent US20090099157A1, “TETRAHYDRO-PYRAZOLO-PYRIDINE THIOETHER MODULATORS OF CATHEPSIN S” (priority 2007, published 2009).

Chains of the proteins cited; added tags and fusions are not shown. Residues count along the entry.
UniProt P25774, 115-331: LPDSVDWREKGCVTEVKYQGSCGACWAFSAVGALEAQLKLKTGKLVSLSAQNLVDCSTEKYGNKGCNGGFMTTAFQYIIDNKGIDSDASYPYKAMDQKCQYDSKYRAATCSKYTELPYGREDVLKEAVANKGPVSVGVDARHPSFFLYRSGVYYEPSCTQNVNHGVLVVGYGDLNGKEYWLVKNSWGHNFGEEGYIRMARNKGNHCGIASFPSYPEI

Molecular target: Recombinant human cathepsin S (CatS) (Homo sapiens, UniProt P25774)
Test: biochemical

Row | SMILES | IC50 [nM]
1 | O=C(CSc1cc(-c2nn(CC(O)CN3CCCCC3)c3c2CN(C(=O)CO)CC3)ccc1C(F)(F)F)N1CCOCC1 (stereo not shown) [Example 273, 1-[5-(Hydroxyacetyl)-3-{3-[(2-morpholin-4-yl-2-oxoethyl)sulfanyl]-4-(trifluoromethyl)phenyl}-4,5,6,7-tetrahydro-1H-pyrazolo[4,3-c]pyridin-1-yl]-3-piperidin-1-ylpropan-2-ol] | 190
2 | NC(=O)C1CCN(CC(O)Cn2nc(-c3ccc(C(F)(F)F)c(SCCN4CCC(F)(F)C4)c3)c3c2CCNC3)CC1 (stereo not shown) [Example 327, 1-(3-{3-[3-{[2-(3,3-Difluoropyrrolidin-1-yl)ethyl]sulfanyl}-4-(trifluoromethyl)phenyl]-4,5,6,7-tetrahydro-1H-pyrazolo[4,3-c]pyridin-1-yl}-2-hydroxypropyl)piperidine-4-carboxamide] | 2480
3 | Oc1cccc(N2CCN(CC(O)Cn3nc(-c4ccc(C(F)(F)F)c(SCCN5CCC(F)(F)C5)c4)c4c3CCNC4)CC2)c1 (stereo not shown) [Example 509, 3-[4-(3-{3-[3-{[2-(3,3-Difluoropyrrolidin-1-yl)ethyl]sulfanyl}-4-(trifluoromethyl)phenyl]-4,5,6,7-tetrahydro-1H-pyrazolo[4,3-c]pyridin-1-yl}-2-hydroxypropyl)piperazin-1-yl]phenol] | 660
4 | O=C(CSc1cc(-c2nn(CC(O)CN3CCC4CCCCC4C3)c3c2CNCC3)ccc1C(F)(F)F)N1CCCC1 (stereo not shown) [Example 316, 1-(Octahydroisoquinolin-2(1H)-yl)-3-(3-{3-[(2-oxo-2-pyrrolidin-1-ylethyl)sulfanyl]-4-(trifluoromethyl)phenyl}-4,5,6,7-tetrahydro-1H-pyrazolo[4,3-c]pyridin-1-yl)propan-2-ol] | 2540
5 | CCN1CCc2c(c(-c3ccc(C(F)(F)F)c(SCC(=O)N4CCCC4)c3)nn2CC(O)CN2CCC(c3ccccn3)CC2)C1 (stereo not shown) [Example 282, 1-(5-Ethyl-3-{3-[(2-oxo-2-pyrrolidin-1-ylethyl)sulfanyl]-4-(trifluoromethyl)phenyl}-4,5,6,7-tetrahydro-1H-pyrazolo[4,3-c]pyridin-1-yl)-3-(4-pyridin-2-ylpiperidin-1-yl)propan-2-ol] | 260
6 | O=C(CO)NC1CCN(CC(O)Cn2nc(-c3ccc(C(F)(F)F)c(SCC(=O)N4CCCC4)c3)c3c2CCNC3)CC1 (stereo not shown) [Example 332, 2-Hydroxy-N-{1-[2-hydroxy-3-(3-{3-[(2-oxo-2-pyrrolidin-1-ylethyl)sulfanyl]-4-(trifluoromethyl)phenyl}-4,5,6,7-tetrahydro-1H-pyrazolo[4,3-c]pyridin-1-yl)propyl]piperidin-4-yl}acetamide] | 810
7 | O=C(CSc1cc(-c2nn(CC(O)CN3CCCCC3)c3c2CNCC3)ccc1C(F)(F)F)N1CCCC1 (stereo not shown) [Example 272, 1-(3-{3-[(2-Oxo-2-pyrrolidin-1-ylethyl)sulfanyl]-4-(trifluoromethyl)phenyl}-4,5,6,7-tetrahydro-1H-pyrazolo[4,3-c]pyridin-1-yl)-3-piperidin-1-ylpropan-2-ol] | 3580
8 | CC(=O)N1CCc2c(c(-c3ccc(C(F)(F)F)c(SCC(=O)N4CCCC4)c3)nn2CC(O)CN2CCC(C)CC2)C1 (stereo not shown) [Example 280, 1-(5-Acetyl-3-{3-[(2-oxo-2-pyrrolidin-1-ylethyl)sulfanyl]-4-(trifluoromethyl)phenyl}-4,5,6,7-tetrahydro-1H-pyrazolo[4,3-c]pyridin-1-yl)-3-(4-methylpiperidin-1-yl)propan-2-ol] | 190
9 | CS(=O)(=O)N1CCc2c(c(-c3ccc(C(F)(F)F)c(SCC(=O)NC4CCCC4)c3)nn2CC(O)CN2CCC(c3n[nH]c(=O)[nH]3)CC2)C1 (stereo not shown) [Example 744, N-Cyclopentyl-2-({5-[1-{2-hydroxy-3-[4-(5-oxo-4,5-dihydro-1H-1,2,4-triazol-3-yl)piperidin-1-yl]propyl}-5-(methylsulfonyl)-4,5,6,7-tetrahydro-1H-pyrazolo[4,3-c]pyridin-3-yl]-2-(trifluoromethyl)phenyl}sulfanyl)acetamide] | 1790

Now from value to compound:

Row | IC50 [nM] | SMILES
10 | 660 | CS(=O)(=O)N1CCc2c(c(-c3ccc(C(F)(F)F)c(SCCNCCOc4ccccc4)c3)nn2CCCN2CCC(N3CCCC3=O)CC2)C1 [Example 47, 1-{1-[3-(5-Methanesulfonyl-3-{3-[2-(2-phenoxy-ethylamino)-ethylsulfanyl]-4-trifluoromethyl-phenyl}-4,5,6,7-tetrahydro-pyrazolo[4,3-c]pyridin-1-yl)-propyl]-piperidin-4-yl}-pyrrolidin-2-one]
11 | 80 | CC1(C)CCN(C[C@H](O)Cn2nc(-c3ccc(C(F)(F)F)c(SCCN4CCC(F)CC4)c3)c3c2CCN(S(C)(=O)=O)C3)CC1 [Example 140, (2S)-1-(4,4-Dimethyl-piperidin-1-yl)-3-(3-{3-[2-(4-fluoro-piperidin-1-yl)-ethylsulfanyl]-4-trifluoromethyl-phenyl}-5-methanesulfonyl-4,5,6,7-tetrahydro-pyrazolo[4,3-c]pyridin-1-yl)-propan-2-ol]
12 | 1320 | CC(C)N1CCN(CC(O)Cn2nc(-c3ccc(C(F)(F)F)c(SCCN4CCCCC4)c3)c3c2CCN(S(C)(=O)=O)C3)CC1 (stereo not shown) [Example 545, 1-[4-(1-Methylethyl)piperazin-1-yl]-3-[5-(methylsulfonyl)-3-{3-[(2-piperidin-1-ylethyl)sulfanyl]-4-(trifluoromethyl)phenyl}-4,5,6,7-tetrahydro-1H-pyrazolo[4,3-c]pyridin-1-yl]propan-2-ol]
13 | 95 | CCOC(=O)NC1CCN(CC(O)Cn2nc(-c3ccc(C(F)(F)F)c(SCCN4CCCC4)c3)c3c2CCN(S(C)(=O)=O)C3)CC1 (stereo not shown) [Example 651, Ethyl (1-{2-hydroxy-3-[5-(methylsulfonyl)-3-{3-[(2-pyrrolidin-1-ylethyl)sulfanyl]-4-(trifluoromethyl)phenyl}-4,5,6,7-tetrahydro-1H-pyrazolo[4,3-c]pyridin-1-yl]propyl}piperidin-4-yl)carbamate]
14 | 110 | CS(=O)(=O)N1CCc2c(c(-c3ccc(C(F)(F)F)c(SCCN4CCCC4)c3)nn2CC(O)CN2CCC(C(=O)N3CCCC3)CC2)C1 (stereo not shown) [Example 680, 1-[5-(Methylsulfonyl)-3-{3-[(2-pyrrolidin-1-ylethyl)sulfanyl]-4-(trifluoromethyl)phenyl}-4,5,6,7-tetrahydro-1H-pyrazolo[4,3-c]pyridin-1-yl]-3-[4-(pyrrolidin-1-ylcarbonyl)piperidin-1-yl]propan-2-ol]
15 | 10 | CN(C)c1ccc2c(n1)n(C1CCN(CCCn3nc(-c4ccc(C(F)(F)F)c(SCCN5CCCCC5)c4)c4c3CCN(S(C)(=O)=O)C4)CC1)c(=O)n2C [Example 149, 5-(Dimethylamino)-1-methyl-3-(1-{3-[5-(methylsulfonyl)-3-{3-[(2-piperidin-1-ylethyl)sulfanyl]-4-(trifluoromethyl)phenyl}-4,5,6,7-tetrahydro-1H-pyrazolo[4,3-c]pyridin-1-yl]propyl}piperidin-4-yl)-1,3-dihydro-2H-imidazo[4,5-b]pyridin-2-one]
16 | 320 | CS(=O)(=O)N1CCc2c(c(-c3ccc(C(F)(F)F)c(SCCN4CCOCC4)c3)nn2CC(O)CN2CCC(C(=O)N3CCCC3)CC2)C1 (stereo not shown) [Example 752, 1-[5-(Methylsulfonyl)-3-{3-[(2-morpholin-4-ylethyl)sulfanyl]-4-(trifluoromethyl)phenyl}-4,5,6,7-tetrahydro-1H-pyrazolo[4,3-c]pyridin-1-yl]-3-[4-(pyrrolidin-1-ylcarbonyl)piperidin-1-yl]propan-2-ol]
17 | 280 | CC1CCN(CCSc2cc(-c3nn(C[C@@H](O)CN4CCCCCC4)c4c3CN(S(C)(=O)=O)CC4)ccc2C(F)(F)F)CC1 [Example 445, (2S)-1-Azepan-1-yl-3-{3-[3-{[2-(4-methylpiperidin-1-yl)ethyl]sulfanyl}-4-(trifluoromethyl)phenyl]-5-(methylsulfonyl)-4,5,6,7-tetrahydro-1H-pyrazolo[4,3-c]pyridin-1-yl}propan-2-ol]
18 | 2500 | CS(=O)(=O)N1CCc2c(c(-c3ccc(C(F)(F)F)c(SCCN4CCC(NC(=O)CO)CC4)c3)nn2C[C@@H](O)CN2CCCCC2)C1 [Example 221, 2-Hydroxy-N-[1-(2-{[5-{1-[(2S)-2-hydroxy-3-piperidin-1-ylpropyl]-5-(methylsulfonyl)-4,5,6,7-tetrahydro-1H-pyrazolo[4,3-c]pyridin-3-yl}-2-(trifluoromethyl)phenyl]sulfanyl}ethyl)piperidin-4-yl]acetamide]
19 | 80 | CS(=O)(=O)N1CCc2c(c(-c3ccc(C(F)(F)F)c(SCCN4CCC(F)CC4)c3)nn2C[C@H](O)CN2CCN(c3cnccn3)CC2)C1 [Example 202, (2R)-1-{3-[3-{[2-(4-Fluoropiperidin-1-yl)ethyl]sulfanyl}-4-(trifluoromethyl)phenyl]-5-(methylsulfonyl)-4,5,6,7-tetrahydro-1H-pyrazolo[4,3-c]pyridin-1-yl}-3-(4-pyrazin-2-ylpiperazin-1-yl)propan-2-ol]
20 | 5100 | CN(CCSc1cc(-c2nn(CCCN3CCCCC3)c3c2CN(S(C)(=O)=O)CC3)ccc1C(F)(F)F)CCc1ccccc1 [Example 489, N-Methyl-2-({5-[5-(methylsulfonyl)-1-(3-piperidin-1-ylpropyl)-4,5,6,7-tetrahydro-1H-pyrazolo[4,3-c]pyridin-3-yl]-2-(trifluoromethyl)phenyl}sulfanyl)-N-(2-phenylethyl)ethanamine]
21 | 120 | CS(=O)(=O)N1CCc2c(c(-c3ccc(C(F)(F)F)c(SCCN4CCCC(F)(F)C4)c3)nn2CCCN2CCC(N3CCCC3=O)CC2)C1 [Example 11, 1-{1-[3-(3-{3-[2-(3,3-Difluoro-piperidin-1-yl)-ethylsulfanyl]-4-trifluoromethyl-phenyl}-5-methanesulfonyl-4,5,6,7-tetrahydro-pyrazolo[4,3-c]pyridin-1-yl)-propyl]-piperidin-4-yl}-pyrrolidin-2-one]
22 | 230 | CC1CCN(CC(O)Cn2nc(-c3ccc(C(F)(F)F)c(SCCNS(C)(=O)=O)c3)c3c2CCN(S(C)(=O)=O)C3)CC1 (stereo not shown) [Example 430, N-(2-{[5-{1-[2-Hydroxy-3-(4-methylpiperidin-1-yl)propyl]-5-(methylsulfonyl)-4,5,6,7-tetrahydro-1H-pyrazolo[4,3-c]pyridin-3-yl}-2-(trifluoromethyl)phenyl]sulfanyl}ethyl)methanesulfonamide]
